Data reported in patent publication US20260098026A1, “M4 ACTIVATORS/MODULATORS AND USES THEREOF” (Cerevel Therapeutics, LLC, priority 2022, published 2026).

The chains behind the UniProt entries cited, without tags or fusion partners.
UniProt P20309, whole entry: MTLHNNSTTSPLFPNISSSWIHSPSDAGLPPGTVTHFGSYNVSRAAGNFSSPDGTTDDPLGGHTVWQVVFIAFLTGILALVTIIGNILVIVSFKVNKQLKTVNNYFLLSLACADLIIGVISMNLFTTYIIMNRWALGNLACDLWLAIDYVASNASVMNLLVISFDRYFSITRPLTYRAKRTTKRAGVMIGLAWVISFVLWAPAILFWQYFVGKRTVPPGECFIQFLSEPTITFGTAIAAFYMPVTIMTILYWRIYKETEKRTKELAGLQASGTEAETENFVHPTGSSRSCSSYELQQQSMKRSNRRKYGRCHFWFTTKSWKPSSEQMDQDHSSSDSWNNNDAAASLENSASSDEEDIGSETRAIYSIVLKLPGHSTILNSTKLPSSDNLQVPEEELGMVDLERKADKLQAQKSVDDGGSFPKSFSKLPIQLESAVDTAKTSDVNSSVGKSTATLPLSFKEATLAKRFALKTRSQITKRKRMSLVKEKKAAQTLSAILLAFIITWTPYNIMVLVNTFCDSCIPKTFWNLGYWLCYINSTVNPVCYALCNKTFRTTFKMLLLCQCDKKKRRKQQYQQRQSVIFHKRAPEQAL
UniProt P08173, whole entry: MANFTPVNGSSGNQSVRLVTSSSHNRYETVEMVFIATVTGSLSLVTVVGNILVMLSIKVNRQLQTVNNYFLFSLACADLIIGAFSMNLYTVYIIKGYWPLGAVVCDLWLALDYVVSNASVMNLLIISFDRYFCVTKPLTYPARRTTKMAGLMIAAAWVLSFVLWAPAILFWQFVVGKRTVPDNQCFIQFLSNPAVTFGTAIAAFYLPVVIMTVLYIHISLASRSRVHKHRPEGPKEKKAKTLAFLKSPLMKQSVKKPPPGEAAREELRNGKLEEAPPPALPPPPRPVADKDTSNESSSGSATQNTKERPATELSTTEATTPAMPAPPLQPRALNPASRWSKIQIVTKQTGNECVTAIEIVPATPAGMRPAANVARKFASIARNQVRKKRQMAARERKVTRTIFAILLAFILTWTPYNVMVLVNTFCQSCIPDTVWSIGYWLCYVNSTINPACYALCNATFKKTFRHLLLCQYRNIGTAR
UniProt P11229, whole entry: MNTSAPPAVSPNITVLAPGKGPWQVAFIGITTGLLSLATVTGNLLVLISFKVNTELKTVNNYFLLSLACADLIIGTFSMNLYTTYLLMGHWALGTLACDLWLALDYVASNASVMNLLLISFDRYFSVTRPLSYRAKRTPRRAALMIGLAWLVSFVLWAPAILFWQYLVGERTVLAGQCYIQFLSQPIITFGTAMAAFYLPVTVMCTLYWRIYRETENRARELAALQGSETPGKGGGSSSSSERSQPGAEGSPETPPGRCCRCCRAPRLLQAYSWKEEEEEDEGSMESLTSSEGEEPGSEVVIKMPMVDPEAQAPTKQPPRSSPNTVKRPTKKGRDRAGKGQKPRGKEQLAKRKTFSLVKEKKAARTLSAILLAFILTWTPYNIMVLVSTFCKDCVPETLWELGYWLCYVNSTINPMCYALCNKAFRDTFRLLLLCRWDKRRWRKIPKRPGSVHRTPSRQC
UniProt P08912, whole entry: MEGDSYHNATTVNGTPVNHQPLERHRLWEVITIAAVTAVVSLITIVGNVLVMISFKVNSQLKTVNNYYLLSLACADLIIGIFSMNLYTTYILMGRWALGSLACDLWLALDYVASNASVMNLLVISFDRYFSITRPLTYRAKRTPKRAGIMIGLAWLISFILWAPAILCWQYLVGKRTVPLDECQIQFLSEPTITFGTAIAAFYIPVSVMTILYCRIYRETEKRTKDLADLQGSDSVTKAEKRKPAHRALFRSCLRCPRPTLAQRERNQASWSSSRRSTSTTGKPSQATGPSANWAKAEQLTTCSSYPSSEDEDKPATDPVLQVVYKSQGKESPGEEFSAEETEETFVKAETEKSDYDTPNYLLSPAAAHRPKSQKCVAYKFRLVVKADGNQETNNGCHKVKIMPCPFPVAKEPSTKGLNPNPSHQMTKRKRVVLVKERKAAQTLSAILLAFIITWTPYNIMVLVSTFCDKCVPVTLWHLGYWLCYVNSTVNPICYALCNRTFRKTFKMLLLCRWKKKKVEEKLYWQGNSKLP

How the values were obtained:
[1] = target: M3 muscarinic acetylcholine receptor (mAChR) (Homo sapiens, UniProt P20309); experiment: FLIPR calcium assay (Fluo 8), M3-overexpressing CHO-K1 cells; details: read-out: M3 EC50
Experimental: (§1) Stimulation of a Gq-coupled G-protein coupled receptors (GPCRs), result in an efflux of calcium from the endoplasmic reticulum to the cytoplasm (Berridge, 1993), thus rendering this assay appropriate for the assessment of M1, M3 and M5 receptors. CHO-K1 cells overexpressing the M1, M3, or M5 muscarinic acetylcholine receptor (mAChR) were dispensed at 15,000 cells per well in 30 μl volume to 384-well plates and grown overnight at 37° C. in a 5% CO2 atmosphere. Fluo-8 Solution, 10 μl per well, was added to each well and incubated for 30 minutes at 37° C. in a 5% CO2 atmosphere. Compounds diluted in Hanks' balanced salt solution (HBSS) were transferred to the cell assay plate at 10 μl per well, and then read on a FLIPR instrument. EC50 and Emax figures were calculated from the resulting data for each receptor subtype.

[2] = target: M4 mAChR (Homo sapiens, UniProt P08173); experiment: cAMP TR-FRET assay with forskolin, M4-overexpressing CHO-K1 cells
Text: The M2 and M4 mACh receptors are Gi-coupled receptors which, upon activation, produce a decrease in cAMP. Assays were developed that measured the potency and efficacy of compounds at the M2 or M4 mAChR using M2- or M4-overexpressing CHO-K1 cell lines. Time-resolved fluorescence resonance energy transfer (TR-FRET) technology was used, where signal occurs as a result of transfer of energy if the donor molecule is in close proximity to an acceptor molecule when the molecules have bound to the molecule of interest. The cAMP detection is a competition binding assay, where cAMP produced by cells competes for binding with the labeled donor molecule to the anti-cAMP acceptor antibody. Due to the low basal levels of cAMP in the CHO-K1 cell line, forskolin was used to increase cAMP levels to enable assessment of agonist activity at the mAChR of interest.

[3] = target: M1 muscarinic acetylcholine receptor (mAChR) (Homo sapiens, UniProt P11229); experiment: FLIPR calcium assay (Fluo 8), M1-overexpressing CHO-K1 cells
Experimental: as §1

[4] = target: M5 muscarinic acetylcholine receptor (mAChR) (Homo sapiens, UniProt P08912); experiment: FLIPR calcium assay (Fluo 8), M5-overexpressing CHO-K1 cells
Experimental: as §1

EC50 [1]: > 10 µM | M4 Emax (%) [2]: * (“*” means 80 to 100%) | M1 Emax (%) [3]: ** (“**” means 50 to 79.9%) | M5 Emax (%) [4]: *** (“***” means 19 to 49.9%)
Structure (SMILES): CCOC(=O)N1CC2(CC[C@@H](N3CCC(c4cc(F)cnc4-c4cc[nH]n4)CC3)C2)C1
